Laboratory results from PubChem BioAssay AID588458 (Sanford-Burnham Center for Chemical Genomics, 2011).
Only a part is listed here, and it is no random draw. The source made the active and inactive calls. No stated cut-off is given here; in the data, active means inhibition above about 50%; inactive means the rest.

The chains behind the UniProt entries cited, without tags or fusion partners. Residues count along the entry.
UniProt P26358, 504-1616 limits assumed: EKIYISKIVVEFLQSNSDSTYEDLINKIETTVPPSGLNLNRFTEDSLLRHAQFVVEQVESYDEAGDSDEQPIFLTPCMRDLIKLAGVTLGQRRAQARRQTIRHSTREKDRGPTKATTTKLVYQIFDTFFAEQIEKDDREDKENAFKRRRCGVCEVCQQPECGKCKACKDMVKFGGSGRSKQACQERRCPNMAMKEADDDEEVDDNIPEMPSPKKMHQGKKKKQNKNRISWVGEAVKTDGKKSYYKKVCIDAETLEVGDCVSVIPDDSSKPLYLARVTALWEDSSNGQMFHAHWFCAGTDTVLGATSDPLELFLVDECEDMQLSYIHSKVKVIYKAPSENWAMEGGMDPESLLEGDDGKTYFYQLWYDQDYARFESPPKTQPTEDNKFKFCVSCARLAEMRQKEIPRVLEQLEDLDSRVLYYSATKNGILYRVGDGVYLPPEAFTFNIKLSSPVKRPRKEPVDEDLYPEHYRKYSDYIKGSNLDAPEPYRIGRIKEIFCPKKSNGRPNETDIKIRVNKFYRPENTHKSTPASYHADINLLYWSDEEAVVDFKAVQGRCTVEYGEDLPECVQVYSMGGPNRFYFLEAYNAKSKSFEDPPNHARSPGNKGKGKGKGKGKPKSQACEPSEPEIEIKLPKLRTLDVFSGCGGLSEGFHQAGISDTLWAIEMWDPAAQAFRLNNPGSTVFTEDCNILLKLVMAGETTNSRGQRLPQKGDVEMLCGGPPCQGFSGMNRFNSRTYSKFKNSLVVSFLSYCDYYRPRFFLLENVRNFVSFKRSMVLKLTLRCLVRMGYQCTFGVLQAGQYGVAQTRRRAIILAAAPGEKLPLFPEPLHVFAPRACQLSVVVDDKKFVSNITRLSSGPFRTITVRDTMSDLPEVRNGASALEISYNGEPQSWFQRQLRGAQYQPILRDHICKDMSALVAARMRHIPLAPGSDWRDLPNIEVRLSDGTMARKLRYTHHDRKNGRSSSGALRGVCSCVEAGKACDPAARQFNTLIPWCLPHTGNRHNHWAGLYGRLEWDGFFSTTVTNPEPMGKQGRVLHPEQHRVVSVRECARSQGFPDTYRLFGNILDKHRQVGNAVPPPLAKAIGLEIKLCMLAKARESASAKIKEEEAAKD

molecular target: DNA (cytosine-5)-methyltransferase 1 (Homo sapiens) (UniProt P26358); experiment: human DNMT1 methyltransferase inhibitors, primary screen, biochemical, molecular beacon, fluorescence, HinP1I cleavage, uHTS (AID 588458); settings: at 10 µM, stronger effect = higher value

| Structure (SMILES) | inhibition (reported as % activation of signal) |
| --- | --- |
| CCC(=O)N(c1ccccc1)C1(COC)CCN(CCc2cccs2)CC1 | inactive: 1.71% |
| CCC(=O)N(c1ccccc1)C1(COC)CCN(CCn2nnn(CC)c2=O)CC1 | inactive: -1.96% |
